Consider ten substances from patent US8906844B2 (SYNTONIX PHARMACEUTICALS, dated 2014).

Sequences of proteins named here, by UniProt entry; tags and fusion partners are left off. Residues count along the entry.
UniProt P55899, 24-297: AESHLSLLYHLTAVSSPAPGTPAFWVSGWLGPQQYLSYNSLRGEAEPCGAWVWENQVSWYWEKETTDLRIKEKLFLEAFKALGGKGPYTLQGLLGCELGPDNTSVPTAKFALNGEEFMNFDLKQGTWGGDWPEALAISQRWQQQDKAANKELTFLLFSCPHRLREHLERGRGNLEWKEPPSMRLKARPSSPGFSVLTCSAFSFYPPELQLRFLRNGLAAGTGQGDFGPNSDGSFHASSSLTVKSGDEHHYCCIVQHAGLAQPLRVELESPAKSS

Bounds are passed on as bounds.

The target in one assay is T1, soluble human FcRn (shFcRn) (Homo sapiens, UniProt P55899).
T1 construct: made in house; host or cells: Chinese hamster ovary (CHO) cells, glutamine synthetase expression system
Assay: not given
Type of assay: binding. The following applies: IgG competition ELISA, 3 nM human IgG, buffer pH 6.
A word on the IC50: it is the concentration that gives 50% inhibition. Low values mean greater potency in that assay, high ones weaker potency in that assay. In turn, “F-Asp-TGHFGGLYP-Lys-NGP [Peptide No. 124]” returned an IC50 of 22 µM. Substance F-Pen-TGHFGpLYPCNGP [Peptide No. 145] came in with an IC50 of 3.1 µM.

The substance “RF-Pen-TG-(3-PiperidyalAla)-FG-Sar-NMeLeu-YPC [Peptide No. 263]” showed an IC50 of 6.3 µM.

The target of a further assay is T2, soluble human FcRn (Homo sapiens, UniProt P55899).
T2 construct: made in house; host or cells: Chinese hamster ovary (CHO) cells, glutamine synthetase expression system
In words: Equilibrium binding constants (KD) by surface plasmon resonance (Biacore). The following applies: pH 6; read-out: KD (pH 6). Here is the method:
The following steps were performed to cross-link soluble human or cynomolgus FcRn to the dextran surface of a CM5 sensor chip (Biacore AB, Uppsala, Sweden) by an amine coupling reaction involving 1-ethyl-(3-dimethylaminopropyl)-carbodiimide hydrochloride (EDC) (Biacore AB, Uppsala, Sweden) and N-hydroxysuccinimide (NHS) (Biacore AB, Uppsala, Sweden) as recommended by Biacore (BIAapplications Handbook, version AB, section 4.2, Biacore AB, Uppsala, Sweden). The FcRn protein was diluted in 50 mM sodium acetate, pH 4.5 (Biacore AB, Uppsala, Sweden) to a concentration of 10 to 30 μg/ml and used to coat one flow cell on the sensor chip. Residual sites on the FcRn flow cell were blocked with 1 M ethanolamine hydrochloride pH 8.5 (Biacore AB, Uppsala, Sweden). A control flow cell was blocked with ethanolamine for reference subtraction. For analysis of the monomeric peptides, FcRn was coated to a final density of 4000-5000 response units (RU). For analysis of the peptide dimers, FcRn was coated to a density of 2000-2500 RU. All SPR measurements were performed using a BIACORE 3000 Instrument (Biacore AB Uppsala, Sweden). For measurements done at either pH 6 or pH 7.4, experiments were performed in 50 mM phosphate, 100 mM sodium chloride, 0.01% surfactant P20 (Biacore AB, Uppsala, Sweden).
Ten 2-fold dilutions of the peptide were injected over the FcRn-CM5 chip at a rate of 20 μl/min for 2 min. The peptide was dissociated from the chip for 2.5 minutes with buffer. Any remaining peptide was removed from the chip with a 30 second injection of HBS-P buffer (Biacore AB, Uppsala, Sweden) at a rate of 30 μl/min. Sensorgrams were generated and analyzed using BiaEval software version 3.1 (Biacore AB, Uppsala, Sweden). The equilibrium RU observed for each injection was plotted against concentration. The equilibrium KD values were derived by analysis of the plots using the steady state affinity model included in the BiaEval software.
Ten, 2-fold dilutions of the peptide were injected over the FcRn-CM5 chip at a rate of 30 μl/min for 10 min. Peptides were dissociated from the chip for 10 minutes with buffer. Any remaining peptide was removed from the chip with two, 60 second injections of a solution containing 50 mM Tris-hydrochloride, 100 mM NaCl, 0.01% surfactant P20 pH 9.0 at 100 μl/min.
Sensorgrams were generated and analyzed using BiaEval software version 3.1 (Biacore AB, Uppsala, Sweden). The equilibrium RU observed for each injection was plotted against concentration. The equilibrium KD values were derived by analysis of the plots using the steady state affinity model included in the BiaEval software.
For orientation: Kd means a measure of binding affinity in units of concentration. With “QRF-Asp-TGHFGGLY-Lys-NGP [Peptide No. 107]”, the Kd is greater than 250 µM. “QRF-Asp-TGHFGGLYP-Orn-NGP [Peptide No. 85]”: the Kd was found to be 2.7 µM. For the substance “QRF-Pen-TG-Dap-FGGLYPCNGP [Peptide No. 109]”, the Kd was greater than 100 µM. Turning to “QRF-Pen-TGH-(Tic)-GGLYPCNGP [Peptide No. 103]”, the Kd is greater than 250 µM. Turning to “QRF-Pen-TGH-(phenylGly)-GGLYPCNGP [Peptide No. 102]”, the Kd was greater than 250 µM. On to QRFCTG-Dab-FGGLYPCNGP [Peptide No. 36], for which the Kd was 211 µM. Same read-out and setting: then QRFCTGHF-Apa-LYPCNGP [Peptide No. 35], with 220 µM. On the same count and under the same terms, then “RF-Pen-TG-(3-PiperidyalAla)-FG-Sar-NMeLeu-YPC [Peptide No. 263]”, with 0.66 µM.

The assay is the same for the next values; noted with them: pH 7.4; read-out: KD pH 7.4.
For “RF-Pen-TG-(3-PiperidyalAla)-FG-Sar-NMeLeu-YPC [Peptide No. 263]”, the Kd amounted to 0.86 µM.
